Drawing on PubChem BioAssay AID493084 (National Center for Advancing Translational Sciences (NCATS), 2011), this text covers activation for 58 compounds.

Amino acid sequences for entries named in this document (tags omitted).
UniProt P34981, whole entry: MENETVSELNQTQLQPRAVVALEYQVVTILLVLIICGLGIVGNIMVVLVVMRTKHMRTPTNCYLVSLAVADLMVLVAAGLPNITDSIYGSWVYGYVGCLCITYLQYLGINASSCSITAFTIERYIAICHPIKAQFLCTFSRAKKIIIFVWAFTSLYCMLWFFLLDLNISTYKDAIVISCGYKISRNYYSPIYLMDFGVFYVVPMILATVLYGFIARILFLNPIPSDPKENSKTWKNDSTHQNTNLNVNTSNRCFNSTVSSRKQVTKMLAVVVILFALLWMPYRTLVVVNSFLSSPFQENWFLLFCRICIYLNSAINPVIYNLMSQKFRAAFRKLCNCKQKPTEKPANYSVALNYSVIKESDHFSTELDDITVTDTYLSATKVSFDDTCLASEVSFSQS

The list shows a part of the results, in another mix than the full data. Active and inactive are the calls of the source. Cut-off read from the data, not from the text of the source: active = activation above about 30%; inactive = the rest.

The target in this assay is Thyrotropin-releasing hormone receptor (Homo sapiens) (UniProt P34981). Nature of the assay: qHTS for Small Molecule Agonists and Allosteric Enhancers of Human TRH Receptor: Primary Screen for Agonists. Note: 0% is about no effect. Conditions: TRHR cells, calcium flux fluo-8, FDSS agonist mode; at 2 µM; active compounds read high. The source says:
NIH Chemical Genomics Center [NCGC] NIH Molecular Libraries Probe Centers Network [MLPCN] MLPCN Grant: MH089816-01 Assay Submitter (PI): Marvin Gershengorn This project aims to identify small drug-like molecules that activate (agonists) the thyrotropin releasing hormone (TRH) receptor (TRHR) or enhance its TRH-stimulated activity (allosteric enhancers). TRHR, a drug-accessible cell surface receptor expressed in specific brain regions, and its ligand TRH have been implicated in several central nervous system disorders, including depression and anxiety. Small molecule TRHR agonists or allosteric enhancers that are metabolically stable and able to cross the blood-brain barrier might serve as probes to elucidate the roles of brain TRH receptors in animal models, and might be valuable as lead compounds for the development of drugs to treat patients with central nervous system disorders. Upon TRHR-Gq activation in TRHR cells, intracellular calcium is released from stores in the endoplasmic reticulum. […] This primary screen measures compound-induced activation of calcium release.
For the HTS assay freshly prepared cells are plated at a density of 2000/well in 3 ul of complete DMEM medium containing 10% serum in 1536-well plates and cultured over night at 37 C in a humidified incubator with 5% CO2. The next day, 2 ul of a no wash calcium dye (ABD Bioquest) was added to the cells and plates were incubated at room temperature for 1 hour. For the assay, assay plates were loaded into the FDSS kinetic plate reader. A 10 cycle (1 second/cycle) baseline measurement is taken and then the FDSS online 1536 pintool delivers 23 nl of compound library (as well as TRH controls) to the plate. The plate is measured for kinetically at 1 cycle/sec for 180 seconds and is considered to be the agonist portion of the assay (eg, compounds which activate a positive calcium response during this portion are flagged as potential agonists). Following the 180 second read, 1 ul of either an EC20 (positive modulation assay) is delivered by an onboard pipette head. Measurements are taken kinetically for an additional 180 seconds. TRHR FDSS Screening Protocol 1. Reagent, 3 uL 2000 cells/well 1536 TC treated Black plate in media containing 10% FCS 2. Time, 18 hours, 33.5C 5% CO2 (cells grown at 37C) 3. Reagent, 2 uL ABD fluo-8 Ca dye 4. Time, 30 min-1.5hrs hours, Room temp (6 plates/batch) 5. Detector, EX 480/EM 530C, FDSS 10 cycles baseline (1sec/cycle) 6. Compound, 23 nL of stock solution from library 7. Detector, EX 480/EM 530C, FDSS […] (1sec/cycle) Agonist mode 8. Compound, 1 ul EC20 of TRH made up in HEPES HBSS, 10 nM final 9. Detector, EX 480/EM 530C, FDSS 100 cycles (1sec/cycle) Potentiator mode
As to `O=[N+]([O-])c1cc([N+](=O)[O-])c(-n2nnc3ccccc32)c([N+](=O)[O-])c1`, the activation is inactive: -0.417%.

In the case of `Cc1nc2ccc3ccccc3c2s1.O=[N+]([O-])c1cc([N+](=O)[O-])c(O)c([N+](=O)[O-])c1`, the activation is inactive: -0.8%. Under `O=[N+]([O-])c1cc([N+](=O)[O-])c(Nc2nnnn2CCO)c([N+](=O)[O-])c1` stands inactive: -0.0829%. `CC1=C2N=C(C=C3N=C(C(C)=C4[N-][C@@](C)([C@@H]5N=C1[C@](C)(CCC(=O)NC[C@@H](C)OP(=O)([O-])O[C@H]1[C@@H](O)[C@@H](n6cnc7cc(C)c(C)cc76)O[C@@H]1CO)[C@H]5CC(N)=O)[C@@](C)(CC(N)=O)[C@@H]4CCC(N)=O)[C@@](C)(CC(N)=O)[C@@H]3CCC(N)=O)C(C)(C)[C@@H]2CCC(N)=O.[C-]#N.[Co+3]`: the activation was inactive: 0.0606%. As for `CP(=O)(Nc1ccc(SC(F)(F)F)cc1)Oc1ccccc1` (stereo not drawn), the activation is inactive: 0.863%. Under `CCCOc1ccc(NP(C)(=O)Oc2ccc(Cl)cc2)cc1` (stereo not drawn) stands inactive: -1.27%; under `CN1CCCCC1COC(=O)C1(O)c2ccccc2CCc2ccccc21` (stereo not drawn), inactive: 0.029%. In the case of `COc1ccccc1OP(C)(=O)Nc1c(C)cccc1C` (stereo not drawn) it was inactive: 0.597%; in that of `CC1=NCCc2c1[nH]c1ccccc21.O=[N+]([O-])c1cc([N+](=O)[O-])c(O)c([N+](=O)[O-])c1`, inactive: -0.0199%. Under `Cc1cc(C)cc(OP(C)(=O)Nc2ccc(C)cc2C)c1` (stereo not drawn) stands inactive: 0.0166%; under `CCOC(=O)c1ccc(NP(C)(=O)Oc2cc(C)cc(C)c2)cc1` (stereo not drawn), inactive: 0.606%; under `COc1ccccc1OP(C)(=O)Nc1cccc(Br)c1` (stereo not drawn), inactive: -0.716%. Consider `CP(=O)(Nc1cccc(Br)c1)Oc1ccccc1` (stereo not drawn), for which the activation is inactive: -0.57%. As for `Cc1cc(C)cc(OP(C)(=O)Nc2ccccn2)c1` (stereo not drawn), the activation was inactive: -1.06%. Under `Cc1ccc(C)c(NP(C)(=O)Oc2ccccc2)c1` (stereo not drawn) stands inactive: -0.0372%; under `CCN(CC)CCCOC(=O)C(O)(c1ccccc1)c1ccccc1`, inactive: 0.756%; under `CC(C)(C)c1ccc(OP(C)(=O)Nc2ccc(SC(F)(F)F)cc2)cc1` (stereo not drawn), inactive: -0.483%. Under `Cc1cccc(C)c1OP(C)(N)=O` (stereo not drawn) stands inactive: 0.367%. Consider `O=[N+]([O-])c1ccc2c(c1)C=Nc1ccccc1O2`, for which the activation was inactive: 1.57%. In the case of `O=[N+]([O-])c1cc([N+](=O)[O-])c(Nc2cccnc2)c([N+](=O)[O-])c1` it was inactive: 5.95%; in that of `COc1ccccc1OP(C)(=O)Nc1cc(Cl)ccc1C` (stereo not drawn), inactive: -0.625%; in that of `COc1ccc(OP(C)(=O)Nc2cccc(F)c2)cc1` (stereo not drawn), inactive: -0.141%. In the case of `Cc1cc(C)cc(OP(C)(N)=O)c1` (stereo not drawn) it was inactive: 0.0315%; in that of `CCOC(=O)c1ccc(NP(C)(=O)Oc2ccccc2)cc1` (stereo not drawn), inactive: 0.0438%. Under `COc1ccccc1OP(C)(=O)Nc1ccc(C)cc1` (stereo not drawn) stands inactive: -0.301%; under `Cc1ccc(NP(C)(=O)Oc2ccccc2)c(C)c1` (stereo not drawn), inactive: -0.771%. For `COc1ccccc1OP(C)(=O)Nc1ccccc1` (stereo not drawn), the activation was inactive: -0.0829%. Under `CP(=O)(Nc1ccccc1Br)Oc1ccccc1` (stereo not drawn) stands inactive: -0.574%; under `CP(=S)(Nn1cnnc1)Oc1ccccc1` (stereo not drawn), inactive: -0.205%. For the compound `CCc1ccc(OP(C)(=O)N2CCN(c3ccc([N+](=O)[O-])cc3)CC2)cc1` (stereo not drawn), the activation was inactive: -0.132%.

For the compound `CP(=O)(NC(=O)Nc1ccccc1)Oc1ccccc1` (stereo not drawn), the activation is inactive: 0.355%.

Turning to `Cc1cc(C)cc(OP(C)(=O)Nc2ccc(SC(F)(F)F)cc2)c1` (stereo not drawn), the activation was inactive: 0.588%. As for `CP(=O)(Nc1ccc(SC(F)(F)F)cc1)Oc1ccc(Cl)cc1` (stereo not drawn), the activation was inactive: 0.547%. Under `Cc1cccc(C)c1OP(C)(=O)Nc1ccc(SC(F)(F)F)cc1` (stereo not drawn) stands inactive: 1.89%; under `CP(=O)(Oc1ccccc1)OC(c1ccccc1)C(F)(F)F` (stereo not drawn), inactive: 0.0123%; under `CP(=O)(Nc1ccccn1)Oc1ccc(Cl)cc1` (stereo not drawn), inactive: -0.58%. `CCOP(C)(=S)SCC(=O)NC(C)C(=O)O` (stereo not drawn): the activation is inactive: -0.187%. Under `CCOC(=O)c1ccc(NP(C)(=O)Oc2ccc(OC)cc2)cc1` (stereo not drawn) stands inactive: 0.98%. In the case of `CP(=O)(Oc1ccccc1)N1CCOC1=O` (stereo not drawn) it was inactive: 2.69%; in that of `CCc1ccc(OP(C)(=O)Nc2cccnc2)cc1` (stereo not drawn), inactive: -0.361%.

Consider `COc1ccccc1OP(C)(=O)Nc1c(C)n(C)n(-c2ccccc2)c1=O` (stereo not drawn), for which the activation was inactive: 0.241%. In the case of `O=C(OCCCN1CCCC1)C(O)(c1ccccc1)C1CCCCC1` (stereo not drawn) it was inactive: 0.151%; in that of `CCN(CC)CC(O)COC(=O)C(O)(c1ccccc1)C1CCCCC1` (stereo not drawn), inactive: 0.104%. For the compound `COc1ccc(OP(C)(=O)Nc2ccc(Br)cc2)cc1` (stereo not drawn), the activation was inactive: 0.0824%. In the case of `CN(C)C(=O)c1c([N+](=O)[O-])cc([N+](=O)[O-])cc1[N+](=O)[O-]` it was inactive: 0.879%; in that of `CP(=O)(Nc1ccc(Cl)cc1)Oc1ccc(F)cc1` (stereo not drawn), inactive: -0.0263%; in that of `CC(C)(C)c1ccc(OP(C)(=O)O)cc1`, inactive: -1%. In the case of `COc1ccccc1OP(C)(=O)Nc1ccccc1Br` (stereo not drawn) it was inactive: -0.873%. In the case of `CP(=O)(OC12CC3CC(CC(C3)C1)C2)OC12CC3CC(CC(C3)C1)C2` it was inactive: 1.71%. `CCOC(=O)c1ccc(NP(C)(=O)Oc2ccc(Cl)cc2)cc1` (stereo not drawn): the activation was inactive: -0.32%. In the case of `COc1ccc(OP(C)(=O)Nc2ccccc2Br)cc1` (stereo not drawn), the activation is inactive: -0.0453%.

As for `COc1ccccc1OP(C)(=O)Nc1ccc(C)c(C)c1` (stereo not drawn), the activation is inactive: 0.563%. As for `Cc1cc(C)cc(OP(C)(=O)Nc2cccc(C(F)(F)F)c2)c1` (stereo not drawn), the activation was inactive: -1.31%. Under `CP(=O)(OCCOc1ccccc1)OCCOc1ccccc1` stands inactive: -0.343%; under `CP(=O)(Nc1ccc(Cl)cc1Cl)Oc1ccccc1` (stereo not drawn), inactive: -0.182%. As to `Cc1nc2ccc3ccccc3c2o1.O=[N+]([O-])c1cc([N+](=O)[O-])c(O)c([N+](=O)[O-])c1`, the activation was inactive: -0.201%. Under `CN(C)CCOC(=O)C(O)(c1ccccc1)C1CCCC1` (stereo not drawn) stands inactive: 0.104%; under `COc1ccc(OP(C)(=O)Nc2ccccn2)cc1` (stereo not drawn), inactive: 0.268%.
